Our source for the IC50 values is ChEMBL document CHEMBL4041501, “Isolation of Acacetin from Calea urticifolia with Inhibitory Properties against Human Monoamine Oxidase-A and -B” (J Nat Prod, 2016).

Chains of the proteins cited; added tags and fusions are not shown.
UniProt P21397, whole entry: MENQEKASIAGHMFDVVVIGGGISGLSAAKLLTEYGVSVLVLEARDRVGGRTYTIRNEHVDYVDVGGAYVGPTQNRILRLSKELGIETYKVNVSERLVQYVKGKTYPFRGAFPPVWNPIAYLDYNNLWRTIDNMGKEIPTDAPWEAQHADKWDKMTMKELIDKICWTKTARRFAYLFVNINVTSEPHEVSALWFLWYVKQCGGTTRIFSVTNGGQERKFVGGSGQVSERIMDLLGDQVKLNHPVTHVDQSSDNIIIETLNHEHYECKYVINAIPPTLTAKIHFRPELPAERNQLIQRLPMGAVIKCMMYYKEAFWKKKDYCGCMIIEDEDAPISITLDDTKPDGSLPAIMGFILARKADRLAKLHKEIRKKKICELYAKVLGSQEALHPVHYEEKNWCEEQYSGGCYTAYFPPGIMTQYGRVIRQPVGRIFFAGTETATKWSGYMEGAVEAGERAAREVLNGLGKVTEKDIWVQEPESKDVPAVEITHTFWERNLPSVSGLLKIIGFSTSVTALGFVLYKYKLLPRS

For the assay, the target named is Amine oxidase [flavin-containing] A (Homo sapiens, UniProt P21397). The assay is described as follows: Inhibition of recombinant human MAO-A assessed as reduction in 4-hydroxyquinoline formation using kynuramine as substrate after 20 mins by fluorometric assay.

In the case of `NNCCc1ccccc1` [PHENELZINE], the IC50 stood at 238 nM.

What is called IC50 is the point on the concentration scale where inhibition reaches its midpoint.
